Test system: MiaPaCa2 cells
Experiment: cell-based HT lactate assay by colorimetric/fluorometric detection (cellular inhibition of lactate production)
Details: read-out: Lactate activity, assay of Example 6

Cc1ccc(C#Cc2cc(-c3nn(-c4nc(C(N)=O)cs4)c(CC4CC4)c3Cc3ccc(S(N)(=O)=O)c(F)c3)ccc2F)s1
IC50: < 1000 nM
